Assay: In vitro pharmacokinetic (metabolic) stability in human whole blood
Type: in vitro ADME
Details: 5 μM test compound, 37° C., time points 0, 0.5, 1, 4, 6 and 24 hours, LC/MS/MS, percent compound remaining
Protocol: In Vitro Pharmacokinetic Stability Evaluation
Compounds were tested for metabolic stability in human whole blood. Such testing is commonly undertaken prior to or along with advanced preclinical testing in order to identify compounds with desirable pharmacokinetic properties. Into each of 6 centrifuge tubes was added 2 μL of test compound and 198 μL of human whole blood, taken from normal, healthy volunteers, to achieve a final concentration of 5 μM. Tubes were then incubated at 37° C. at approximately 100 rpm on an orbital shaker. One of the tubes was taken at designated time points including 0, 0.5, 1, 4, 6 and 24 hours. The reaction was stopped by the addition of 4 volumes of cold methanol. Samples were centrifuged at 20,000 rpm for 20 minutes to precipitate protein. A 200 μL aliquot of the supernatant was used for LC/MS/MS analysis for each compound at each time point. All experiments were performed in duplicate. The LC system comprised a Shimadzu liquid chromatograph separation system equipped with degasser DGU-20A3, solvent delivery unit LC-20AD, system controller CBM-20A, column oven CTO-10ASVP and CTC Analytics HTC PAL System. Mass spectrometric analysis was performed using an API 4000 instrument from AB Inc. (Canada) with an ESI interface. […]

Substance: Mevinolin [Reference (Mevinolin), reference compound]
- Half Life: 4 to 6 h
